# Antibody variant affinities, Ab-14 heavy chain, assay B

Antigen: PDVDLGDISGINAS, a 14-residue peptide of the SARS-CoV-2 spike HR2 region.

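The starting antibody came from a phage panning campaign against this peptide. This is the validation round: designs drawn from the data on random variants, tested in the same kind of assay. Several design methods are mixed in this list. In AlphaSeq, yeast of one mating type display the scFv and yeast of the other type display the target. After mating in shaken culture at 30 °C for 16 h, diploids were selected and their barcode pairs sequenced. The ratio of observed to expected reads was calibrated, replicate by replicate, on BCL2-family standards whose Kd was known from biolayer interferometry. Each pool was mated in six replicate cultures.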

Parent: Ab-14, a human scFv built as VH, a (GGGGS)3 linker, VL. Only the CDRs of the heavy chain vary.
VH: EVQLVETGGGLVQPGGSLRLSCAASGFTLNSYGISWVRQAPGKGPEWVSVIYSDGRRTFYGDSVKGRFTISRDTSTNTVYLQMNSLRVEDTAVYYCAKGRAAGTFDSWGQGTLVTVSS
VL: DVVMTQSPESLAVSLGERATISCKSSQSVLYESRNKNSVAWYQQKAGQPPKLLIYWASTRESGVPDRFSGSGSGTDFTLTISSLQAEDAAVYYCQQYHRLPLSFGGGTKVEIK

Each variant is given by its three heavy chain CDRs, as the data file delimits them; those of the parent are GFTLNSYGIS, VIYSDGRRTFYGDSVK, GRAAGTFDS.
Values are log10 of the apparent Kd in nM; lower means stronger binding.
The mean shown is taken over the replicates in which the pair was detected.
"no signal" means that the variant was in the library but no mating with the target was seen in any replicate; the authors take this as a sign of poor binding, and no number exists.
The list is sorted by this average, lowest first, undetected variants last.
Nonspecific signal, from three strains lacking the peptide, appeared in 1% of pairings of all heavy chain designs, centred on 2.08 (5% of these signals below 0.84); values are not corrected for it.
The range of this assay differs from that of the first round, and the authors advise against merging the two.
The authors' rule: three or more of the six replicates give a measured affinity, fewer mean a poor binder.

CDR-H1,CDR-H2,CDR-H3,"mean, log10 nM",seen in
GFDLDEYGIS,VIYADGRRTFYSDSVK,GTTAGTFDV,-1.39,6 of 6
GFSLKSYGIS,VIYADGRRTFYGDNVK,GEAAGTFDS,-0.74,5 of 6
GFDLNEYGIS,VIYADGRRSFYADSVK,GQLAGTFDA,-0.67,6 of 6
GFDLNEYGIS,VIYADGKRTAYIDSVK,GNVAGTFDQ,-0.66,6 of 6
GFDLNEYGIS,VIYADGMRTAYSDNVK,GNVAGTFDL,-0.59,6 of 6
GFDLNEYGIS,VIYADGMRTAYADSVK,GNHAGTFDV,-0.53,6 of 6
GFDLNEYGIS,VIYADGRRTFYTDNVK,GQVAGTFDS,-0.49,6 of 6
GFDLNEYGIS,VIYADGMRTAYADNVK,GNVAGTFDM,-0.40,6 of 6
GFDLNEYGIS,VIYADGRRKAYADDVK,GNNAGTFDV,-0.33,6 of 6
GFDLNEYGIS,VIYADGRRTFYADSVK,GEAGGTFDT,-0.28,6 of 6
GFDLNEYGIS,VIYADGRRTFYIDKVK,GENAGTFDV,-0.18,6 of 6
GFTLNEYGIS,VIYSDGRRTFYSDAVK,GRQAGTFDS,-0.15,6 of 6
GFSLNSYGIS,VIYSDGKRTFYGDNVK,GREAGTFDS,-0.14,6 of 6
GFTLNSYGIS,VIYSDGKRTFYGDSVK,GQTAGTFDL,0.21,2 of 6
GFELNSYGIS,VIYSDGRRTFYQDSVK,GNAAGTFDS,0.29,6 of 6
GKSLDEYGIS,VIYADGLRSVYANSVK,GQFDDTMDL,0.36,6 of 6
GFGLNEYGIS,VIYSDGRRTFYHDSVK,GRNAGTFDS,0.37,6 of 6
GFTLNSYGIS,VIYSDGKRTFYSDSVK,GRTAGTFDT,0.71,3 of 6
GFTLNNYGIS,VIYSDGRRTFYSDSVK,GRLAGTFDT,0.71,6 of 6
GFDLNSYGIS,VIYSDGRRTFYADQVK,GQAAGTFDS,1.17,6 of 6
GFTLDSYGIS,VIYSDGRRTFYGDRVK,GRTAGTFDS,1.26,6 of 6
GFWLNEYGIS,VIYSDGRRTFYADSVK,GRAAGTFDE,1.32,3 of 6
GAVLNSYGIS,VIYSDGRRTFYGDSVK,GTNAGTFDS,1.55,6 of 6
GFSLNEYGIS,VIYSDGRRTFYQDSVK,GPAAGTFDR,1.82,6 of 6
GFNLNSYGIS,VIYSDGRRTFYQDRVK,GEAAGTFDS,1.92,6 of 6
GFTLDSYGIS,VIYSDGRRTFYGDSVS,GRIAGTFDS,2.14,5 of 6
GFTLNSYGIS,VIYSDGRRTFYIDSVK,GWVAGTFDS,2.21,3 of 6
GFILNDYGIS,VIYSDGRRTNYIMSVK,GRAAGTFDS,no signal,0 of 6
GEQIDEYGIS,VIYADGRRTAYSQSVK,GQNGGQIDV,no signal,0 of 6
GQDIEEYGIS,VIYADGMRTVYSDSVK,SGRTVNIDV,no signal,0 of 6
GFTLNSYGIS,VIYSDGRRTFYEDAVK,GRAAGTFDS,no signal,0 of 6
GFTLNSYGIS,VIYSDGRRTFYGDSVK,GRIAGRFRT,no signal,0 of 6
GFTLNSYGIS,VIYSDGRRTFYGDPVK,GRTAGTFDS,no signal,0 of 6
GFDLNEQGIS,VIYADGRRAATINQVK,GSNSFTFDL,no signal,0 of 6
GDGLEEYGIS,VIYADGMRESYVDDVK,GQKGGIFNL,no signal,0 of 6
GFTVNSYGIS,VIYSDGRRTFYGDSVK,GRAAATFDS,no signal,0 of 6
GFELNSYGIS,VIYSDGLRTFYGDSVK,VRAIGKFDS,no signal,0 of 6
GFDLDEYGIS,VIYADGQRVSYAQNVK,GLVGKLGVV,no signal,0 of 6
GFTLDSYGIS,VIYSDGRRTFYGDSVK,GREAGTFHS,no signal,0 of 6
GNNLDEYGIS,VIYADGQRTYYAEAVK,GSNDSGITV,no signal,0 of 6
GFNLNSYGIS,VIYSDGRRTFYGDEVK,GRTAGTFDS,no signal,0 of 6
GHTLNSYGIM,VIYSDGRRTFYDDSVK,GQLAGTFDS,no signal,0 of 6
GFTILSYGIS,VIYSDGRRTFYGDSVK,GRAATTFEG,no signal,0 of 6
GFDLNSYGIS,VIYSDGRRTFYGDSVK,GRAAGHFYS,no signal,0 of 6
GFTLDSYGIS,VIYSDGRRTFYGDYVK,RRAAVTFVS,no signal,0 of 6
GFSLDEFGIS,VIYADGMRTAYSQDVK,GQHVGFTVS,no signal,0 of 6
GMNIDEYGIS,VIYADGLRYHYANSVK,GEMAGFFMD,no signal,0 of 6
GFNLDEYGIS,VIYADGVRTKYINNVK,GVLQDLQMG,no signal,0 of 6
GFTLNSYGIS,VIYSDGRRTFYGDAIK,GRAAGTFDL,no signal,0 of 6
GYDLQDYGIS,VIYADGVRAFYHDSVK,GQLAGIFLL,no signal,0 of 6
GFDLKEYGIS,VIYADGMRQVYINSFK,GDSAGIINF,no signal,0 of 6
LFTLNSYGIS,VIYSDGRRTFYGDSVK,GRAAGTKDD,no signal,0 of 6
GKLLDEYGIS,VIYADGLRMVYANSVK,GNLTDTLLV,no signal,0 of 6
GFWLNEYGIS,VIYSDGRRTFYGDNVK,GRTAGTFDS,no signal,0 of 6
GFWLDEYGIS,VIYADGMRTAYKNSVK,GQFTYNFDV,no signal,0 of 6
GRTLDKSGIS,VIYSDGRRTFYGDSVK,GRAAGTFDG,no signal,0 of 6
GFTENSFGRS,VIYSDGRRTMYGDSVK,GMAAGTFDS,no signal,0 of 6

5 of these entries, quoted again:

| CDR-H1 | CDR-H2 | CDR-H3 | mean, log10 nM | seen in |
|---|---|---|---|---|
| GFDLNEYGIS | VIYADGMRTAYADNVK | GNVAGTFDM | -0.40 | 6 of 6 |
| GFDLNEYGIS | VIYADGRRTFYADSVK | GEAGGTFDT | -0.28 | 6 of 6 |
| GFTVNSYGIS | VIYSDGRRTFYGDSVK | GRAAATFDS | no signal | 0 of 6 |
| GFTLNSYGIS | VIYSDGRRTFYGDPVK | GRTAGTFDS | no signal | 0 of 6 |
| GHTLNSYGIM | VIYSDGRRTFYDDSVK | GQLAGTFDS | no signal | 0 of 6 |

Values reported by Li et al. 2023, doi:10.1038/s41467-023-39022-2 (FLAb copy).